# Measured values: patent publication EP0604354B1, “Antidepressant and antiparkinsonian compounds” (N[…]/S, priority 1992, dated 1994)
# By UniProt entry, the sequences of proteins in these tests, tags left out.
# UniProt P23977, whole entry: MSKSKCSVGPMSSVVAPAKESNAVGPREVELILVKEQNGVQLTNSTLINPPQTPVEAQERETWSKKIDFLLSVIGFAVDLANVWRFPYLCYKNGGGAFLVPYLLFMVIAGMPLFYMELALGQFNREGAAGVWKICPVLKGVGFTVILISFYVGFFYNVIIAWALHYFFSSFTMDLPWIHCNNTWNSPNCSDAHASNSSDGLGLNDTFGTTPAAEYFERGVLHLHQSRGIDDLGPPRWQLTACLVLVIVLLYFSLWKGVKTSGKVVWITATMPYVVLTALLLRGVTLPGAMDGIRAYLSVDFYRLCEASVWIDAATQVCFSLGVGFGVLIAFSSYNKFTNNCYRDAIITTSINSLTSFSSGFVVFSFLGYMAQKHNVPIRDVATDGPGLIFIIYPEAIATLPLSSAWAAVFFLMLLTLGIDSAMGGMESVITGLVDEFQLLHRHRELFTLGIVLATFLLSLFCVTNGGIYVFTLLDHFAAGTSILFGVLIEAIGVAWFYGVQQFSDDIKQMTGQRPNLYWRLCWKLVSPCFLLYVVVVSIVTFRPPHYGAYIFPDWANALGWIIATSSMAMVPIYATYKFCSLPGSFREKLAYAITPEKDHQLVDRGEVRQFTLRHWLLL
# Molecular target: T1, reuptake of dopamine in synaptosomes of rat forebrain (Rattus norvegicus, UniProt P23977)
# T1 construct: Fresh whole forebrain (at 0-4°C) from male Wistar rats (150-200 g) is homogenized; from tissue; host or cells: male Wistar rat whole forebrain, crude synaptosomal supernatant
# Experiment: inhibition of reuptake of 3H-dopamine in synaptosomes of rat forebrain
# Type: biochemical
# Details: potency ratio versus Win 35,428
# Procedure: The homogenate is centrifuged at 1000 x g (∼ 2900 rpm) for 10 min.
# A Krebs Buffer (119 mM NaCI, 24 mM NaHCO3, 2.1 mM KCI, 1.2 mM KH2PO4, 1.8 mM CaCl2, 2 mM MgSO4, 7H2O, 12 mM glucose) is equilibrated with an atmosphere of 96% O2: 4% CO2 for at least 60 min at 37°C. To 5 ml Krebs-buffer 100 µl of the radioactivity is added (3H-dopamine 1 x 10^-9M final concentration) and 100 µl test substance solution and 200 µl of tissue suspension.
smiles,measurement,value
"COC(=O)[C@@H]1[C@@H](c2ccc(F)cc2)C[C@@H]2CC[C@H]1N2C [trans isomer of Win 35,428, reference compound]","less potent as compared to the cis isomer (Win 35,428) as a dopamine reuptake inhibitor",~50 times
